Test systems include SK-MEL-2 melanoma; EKVX NSCLC; SN12C renal; UO-31 renal; TK-10 renal; ACHN renal; CAKI-1 renal; A498 renal; HL-60(TB) leukemia; CCRF-CEM leukemia; MOLT-4 leukemia; SR leukemia; RPMI-8226 leukemia; OVCAR-8 ovarian; OVCAR-5 ovarian; OVCAR-4 ovarian; SK-OV-3 ovarian; IGROV1 ovarian; OVCAR-3 ovarian; HS 578T breast.
Holding throughout (experiment): NCI-60 one-dose screen, 48 h (100 = growth as untreated, 0 = no growth, -100 = all killed)
What all share (details): 10 µM unless noted

The structures appear in SMILES notation. The entries are a selection whose mix differs from that of the whole data set.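 Cells were grown in 96-well plates and exposed to the test compound at a single concentration for 48 hours; results are reported as percent growth, with values below 10 considered active.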 The source made the active and inactive calls.

Consider `O=C(O[C@H]1CN2CCC1CC2)C1NCc2ccccc2[C@@H]1c1ccccc1` (stereo not given in full), for which the growth in the test with SK-MEL-2 melanoma is inactive: 106%; with EKVX NSCLC, inactive: 90.2%; in the test on SN12C renal it was inactive: 93.4%; in the test on UO-31 renal it was inactive: 62.6%; in the test with TK-10 renal, inactive: 97.3%; in the test with ACHN renal, inactive: 96.7%. The growth in the test on CAKI-1 renal is inactive: 80.5%; with A498 renal, inactive: 121%; in the test with HL-60(TB) leukemia, inactive: 93.2%; in the test with CCRF-CEM leukemia it was inactive: 91.7%; in the test on MOLT-4 leukemia, inactive: 98.3%; with SR leukemia, inactive: 85%. The growth in the test on RPMI-8226 leukemia was inactive: 91.5%; with OVCAR-8 ovarian, inactive: 104%; in the test with OVCAR-5 ovarian, inactive: 93.3%; in the test with OVCAR-4 ovarian it was inactive: 108%; in the test on SK-OV-3 ovarian, inactive: 98.3%; in the test with IGROV1 ovarian it was inactive: 92.9%. Besides, the results for the growth in the test with OVCAR-3 ovarian and with HS 578T breast were inactive: 102% and inactive: 93.3%, respectively.

For the compound `O=c1ccc(Oc2ccc([N+](=O)[O-])cc2[N+](=O)[O-])nn1-c1ccc([N+](=O)[O-])cc1[N+](=O)[O-]`, the growth with SK-MEL-2 melanoma was inactive: 92.8%; in the test on EKVX NSCLC it was inactive: 97.7%; with SN12C renal, active: -85.2%; with UO-31 renal it was active: -89.6%; with TK-10 renal, inactive: 68.4%; with ACHN renal, active: -78.9%. Also, the growth in the test with CAKI-1 renal was active: -93.5%; with A498 renal, inactive: 96.6%; in the test with HL-60(TB) leukemia, active: -13.3%; in the test on MOLT-4 leukemia, active: -4.14%; in the test with SR leukemia, inactive: 13.9%; in the test with OVCAR-8 ovarian it was inactive: 62.6%. For the same compound, the growth in the test with OVCAR-5 ovarian was inactive: 82.4%; with OVCAR-4 ovarian, active: -94.2%; with SK-OV-3 ovarian, inactive: 88.7%; in the test on IGROV1 ovarian, inactive: 82.4%; in the test on OVCAR-3 ovarian, active: -94.6%; in the test with HS 578T breast, inactive: 48.7%.

Regarding `Cc1cc(C)cc(OP(=O)(Cl)Oc2cc(C)cc(C)c2)c1`, the growth was inactive: 119% in the test with SK-MEL-2 melanoma; inactive: 103% in the test with EKVX NSCLC; inactive: 99.7% in the test on SN12C renal; inactive: 79.5% with UO-31 renal; inactive: 104% in the test on TK-10 renal; inactive: 111% in the test on ACHN renal. Moreover, the growth in the test on CAKI-1 renal was inactive: 99.4%; with A498 renal, inactive: 95.5%; in the test on HL-60(TB) leukemia it was inactive: 108%; in the test on CCRF-CEM leukemia, inactive: 112%; in the test with MOLT-4 leukemia, inactive: 99.9%; in the test on SR leukemia it was inactive: 99.4%. Further, the growth is inactive: 120% with RPMI-8226 leukemia; inactive: 120% with OVCAR-8 ovarian; inactive: 106% in the test on OVCAR-5 ovarian; inactive: 113% in the test with SK-OV-3 ovarian; inactive: 99.4% in the test with IGROV1 ovarian; inactive: 109% with OVCAR-3 ovarian. Besides, the growth with HS 578T breast is inactive: 97.1%.

Take `O=Cc1sc(N(CCCl)CCCl)nc1Cl`: the growth with SK-MEL-2 melanoma was inactive: 102%; in the test on EKVX NSCLC, inactive: 104%; with SN12C renal, inactive: 106%; in the test on UO-31 renal, inactive: 85.8%; in the test on TK-10 renal, inactive: 109%; in the test on ACHN renal, inactive: 95.8%. Further, the growth in the test with CAKI-1 renal is inactive: 92.9%; in the test with A498 renal it was inactive: 96.8%; with HL-60(TB) leukemia, inactive: 78.4%; with CCRF-CEM leukemia, inactive: 91.8%; with MOLT-4 leukemia, inactive: 93%; in the test with SR leukemia it was inactive: 88.9%. Also, the growth was inactive: 92.8% with OVCAR-8 ovarian; inactive: 111% with OVCAR-5 ovarian; inactive: 111% with OVCAR-4 ovarian; inactive: 97% in the test with SK-OV-3 ovarian; inactive: 103% in the test on IGROV1 ovarian; inactive: 102% in the test on OVCAR-3 ovarian. For the same compound, the growth in the test with HS 578T breast is inactive: 89.3%.

On to `CN1C(=O)N(C)P12(Cl)N(C)C(=O)N2C`, for which the growth in the test with SK-MEL-2 melanoma is inactive: 108%; in the test on EKVX NSCLC, inactive: 102%; with SN12C renal it was inactive: 99%; with UO-31 renal, inactive: 107%; with TK-10 renal, inactive: 103%; in the test with ACHN renal it was inactive: 114%. Besides, the growth is inactive: 99.5% in the test with CAKI-1 renal; inactive: 90% in the test on A498 renal; inactive: 100% with HL-60(TB) leukemia; inactive: 102% with CCRF-CEM leukemia; inactive: 102% in the test with MOLT-4 leukemia; inactive: 102% in the test with RPMI-8226 leukemia. For the same compound, the growth was inactive: 101% in the test with OVCAR-8 ovarian; inactive: 117% with OVCAR-5 ovarian; inactive: 108% with OVCAR-4 ovarian; inactive: 112% in the test on SK-OV-3 ovarian; inactive: 108% with IGROV1 ovarian; inactive: 114% with OVCAR-3 ovarian. The growth in the test with HS 578T breast is inactive: 98.7%.

In the case of `O=C(CBr)c1ccc([N+](=O)[O-])cc1`, the growth with SK-MEL-2 melanoma was inactive: 108%; in the test with EKVX NSCLC it was inactive: 111%; in the test with SN12C renal, inactive: 95.7%; in the test on UO-31 renal, inactive: 65.1%; in the test on TK-10 renal it was inactive: 83%; in the test with ACHN renal, inactive: 105%. For the same compound, the growth with CAKI-1 renal was inactive: 102%; with A498 renal, inactive: 96.3%; with HL-60(TB) leukemia it was inactive: 85.4%; with CCRF-CEM leukemia it was inactive: 92.6%; in the test with MOLT-4 leukemia, inactive: 91.5%; in the test with SR leukemia, inactive: 96.9%. Besides, the growth with RPMI-8226 leukemia was inactive: 89.9%; with OVCAR-8 ovarian, inactive: 127%; with OVCAR-5 ovarian, inactive: 129%; in the test on SK-OV-3 ovarian, inactive: 98.8%; in the test on IGROV1 ovarian it was inactive: 108%; with OVCAR-3 ovarian, inactive: 111%. In the test with HS 578T breast, the growth is inactive: 119%.

Turning to `COC(=O)C(=[N+]=[N-])C(=O)c1cc([N+](=O)[O-])cc([N+](=O)[O-])c1`, the growth was inactive: 111% with SK-MEL-2 melanoma; inactive: 103% in the test on EKVX NSCLC; inactive: 118% in the test with SN12C renal; inactive: 111% with UO-31 renal; inactive: 108% with TK-10 renal; inactive: 117% with ACHN renal. In addition, the growth in the test on CAKI-1 renal is inactive: 101%; with A498 renal, inactive: 97.9%; in the test on CCRF-CEM leukemia it was inactive: 101%; in the test on RPMI-8226 leukemia, inactive: 101%; in the test with OVCAR-8 ovarian, inactive: 105%; in the test on OVCAR-5 ovarian, inactive: 113%. In addition, the growth was inactive: 107% in the test on OVCAR-4 ovarian; inactive: 113% in the test with SK-OV-3 ovarian; inactive: 111% in the test with IGROV1 ovarian; inactive: 115% in the test on OVCAR-3 ovarian; inactive: 107% with HS 578T breast.

Take `O=C(O)c1ccccc1[As](=O)(O)O`: the growth in the test with SK-MEL-2 melanoma is inactive: 115%; with EKVX NSCLC, inactive: 87.8%; with SN12C renal it was inactive: 96.7%; with UO-31 renal, inactive: 117%; in the test on TK-10 renal it was inactive: 91.5%; in the test with ACHN renal, inactive: 104%. In addition, the growth in the test with CAKI-1 renal was inactive: 56.8%; in the test on A498 renal, inactive: 101%; with HL-60(TB) leukemia, inactive: 123%; in the test on CCRF-CEM leukemia it was inactive: 94.9%; with MOLT-4 leukemia, inactive: 72.8%; in the test on RPMI-8226 leukemia, inactive: 75%. For the same compound, the growth is inactive: 111% with OVCAR-8 ovarian; inactive: 134% in the test with OVCAR-5 ovarian; inactive: 104% in the test on OVCAR-4 ovarian; inactive: 95.1% with SK-OV-3 ovarian; inactive: 99.1% in the test with IGROV1 ovarian; inactive: 91.8% in the test with OVCAR-3 ovarian. For the same compound, in the test with HS 578T breast, the growth is inactive: 88.5%.
